Experimental findings from patent publication EP3727043B1 (Golden Gait Biotech, S.L., priority 2017, dated 2019) are described below.

“And” between values parts separate entries of the source, which are not always exact repeats. Equal values may be shown once. Read-outs that look alike come from different tables or passages of the source.

Data set [1] relates to 1-methyl-4-phenyl-1,2,3,6-tetrahydropyridine (MPTP) monkeys. Conditions: monkey, in vivo.
The test system is the same in data set [2]. Nature of the data set: LIDs in parkinsonian nonhuman primates. Particulars: for Dose to reduce LIDs / persistence of the LID reduction, tolerance: monkeys; for reduction of LIDs in parkinsonian monkeys / Side effects in monkeys: monkey, in vivo.
Where [3] appears, read: at the dose printed in column Dose to reduce LIDs (mg/kg).
[4] abbreviates: parkinsonian monkeys, maximal decrease as worded in the text.

As to `Cc1ncccc1OC[C@@H]1CCCN1` [ABT-089], in data set [1], the “Side effects in monkeys” value is “None”; the “side effects, emesis or nausea in monkeys” value was “no detectable side effects and no emesis”. Further, in data set [2] (setting [3]), the “Decline in LIDs in monkeys” value is 30-50%. In data set [2], the “Dose to reduce LIDs” value is 0.10 mg/kg and the “persistence of the LID reduction, tolerance” value is listed as “persisted for months”. For the same compound, the “Decline in LIDs in monkeys” value in data set [2] (setting [4]) was found to be 40%.

Consider `c1cc2cc(-c3ccc(O[C@H]4CN5CCC4CC5)nn3)ccc2[nH]1` [ABT-107], for which the “Side effects in monkeys” value in data set [1] is recorded as “None”. The “Decline in LIDs in monkeys” value in data set [2] (setting [3]) is given as 60%. In data set [2], the “reduction of LIDs in parkinsonian monkeys” value was “reduced LIDs in parkinsonian monkeys with varying efficacy” and the “Dose to reduce LIDs” value worked out at 0.10 mg/kg.

Consider `Clc1cc(N2C[C@@H]3CN[C@@H]3C2)cnc1Cl` [ABT-894], for which, in data set [1], the “Side effects in monkeys” value is “None”; the “side effects, emesis or nausea in monkeys” value was “no detectable side effects and no emesis”. The “Decline in LIDs in monkeys” value in data set [2] (setting [3]) worked out at 60%. For the same compound, in data set [2], the “Dose to reduce LIDs” value was found to be 0.01 mg/kg and the “persistence of the LID reduction, tolerance” value is on record as “persisted for months”. Besides, the “Decline in LIDs in monkeys” value in data set [2] (setting [4]) is on record as “up to 60%”.

`Cc1ccc(-c2ccc(OC3CN4CCC3CC4)cn2)cc1` (centres unmarked) [AQW051]: the “Side effects in monkeys” value in data set [1] is given as “None”. In addition, the “Decline in LIDs in monkeys” value in data set [2] (dose 8.0 mg/kg) is reported as 0%. Besides, in data set [2], the “reduction of LIDs in parkinsonian monkeys” value is “reduced LIDs in parkinsonian monkeys with varying efficacy”; the “Dose to reduce LIDs” value was 15.0 mg/kg and 8.0 mg/kg.

With `O=C(c1ccc(Cl)o1)N1CC2CNCC2C1` (centres unmarked) [AZD 1446], the “Decline in LIDs in monkeys” value in data set [2] (setting [3]) is 30%. In addition, in data set [2], the “Side effects in monkeys” value is “None” and the “Dose to reduce LIDs” value is on record as 1.0 mg/kg. In addition, in data set [2] (setting [4]), the “Decline in LIDs in monkeys” value was 30%.

In the case of `c1cnc2cc3c(cc2n1)[C@@H]1CNC[C@H]3C1` [Varenicline], the “Decline in LIDs in monkeys” value in data set [2] (setting [3]) was 50%. Moreover, in data set [2], the “Side effects in monkeys” value is listed as “Some nausea”; the “Dose to reduce LIDs” value turned out to be 0.03 mg/kg; the “persistence of the LID reduction, tolerance” value is recorded as “no tolerance”. Also, the “Decline in LIDs in monkeys” value in data set [2] (setting [4]) is listed as ~ 50%.
